Ab-14 light chain CDR variants: yeast mating affinities

Data: MIT Lincoln Laboratory AlphaSeq set, Li et al. 2023, doi:10.1038/s41467-023-39022-2, as distributed in FLAb.

Target: peptide PDVDLGDISGINAS, taken from heptad repeat 2 (HR2) of SARS-CoV-2 spike.

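The starting antibody came from a phage panning campaign against this peptide. The variants were designed computationally from a first round of random CDR variants and then made and measured. Several design methods are mixed in this list. Affinity was read by AlphaSeq, a pooled yeast mating assay with surface-displayed partners. The frequency of each diploid, read from paired DNA barcodes, reflects how well the two displayed proteins bind. A regression on co-assayed BCL2-family reference pairs converts the normalised counts of each replicate to an apparent Kd. The assay was run in six technical replicates.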

Parent scFv Ab-14: VH joined to VL by a (GGGGS)3 linker. Changes lie in the light chain CDRs alone.
VH: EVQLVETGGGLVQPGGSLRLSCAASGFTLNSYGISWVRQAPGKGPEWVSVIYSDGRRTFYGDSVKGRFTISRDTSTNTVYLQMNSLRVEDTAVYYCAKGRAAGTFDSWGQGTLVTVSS
VL: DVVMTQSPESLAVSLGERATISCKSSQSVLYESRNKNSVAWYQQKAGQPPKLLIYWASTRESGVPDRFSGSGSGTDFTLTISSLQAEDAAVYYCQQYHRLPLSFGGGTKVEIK

Variants are written as CDR1, CDR2 and CDR3 of the light chain (limits as in the source). Parent: KSSQSVLYESRNKNSVA, WASTRES, QQYHRLPLS.
Scale: log10 of Kd in nM, estimated from mating counts; low values are strong binders.
Replicates are averaged; those with no signal do not enter the mean.
An entry "nd" has no value in the source: the pair was not observed among the diploids in any replicate. This suggests poor binding but is not conclusive.

CDR-L1	CDR-L2	CDR-L3	mean log10 Kd (nM)	detected
KLTMISGLEKVSTSNVA	EMETREE	QQYNRLPLS	1.94	6/6
KIERATKGDEYFQYSIA	KGDIREK	QQYAQLPLT	1.32	6/6
SMTGGLLDGNREPSNIA	AQDIGTD	QQYHRLPFI	0.65	6/6
NVGQLMDSGTRNRNNVA	HQSTRED	QHYHRLPLS	-0.02	3/6
HLSEVLHMLGVKKNSIA	DLVLRAN	QQYHRLPLM	0.80	6/6
KFSQSVLAESRNKNSVA	WASTRES	QQYRRLPLY	1.22	6/6
ALSQSMDMTSRNINSVA	DLTTREN	QQYHRLPLS	0.19	6/6
LISGVWDYGSRNYNSVA	QTSTRES	QQYDRLPLD	1.44	6/6
HSSPSVGYESRNKNSVA	NASTREE	QDYHRLPLS	0.86	6/6
MLSQMTGLGMKAKNSVA	QASMRFN	QQYHRLPLV	1.41	6/6
KLSQSELYESRNKNSVA	NASKRMS	QQYHRLPLS	0.09	6/6
HMSFLTLQGQRHKNSVA	QMTTREN	QQYDHLPLS	0.88	6/6
KSSQSVAAESRNANSVA	DASTRES	QQYHRLPLS	-0.04	6/6
HISQMWHLESKNKNNVA	EESTRED	QSYFRLPLS	0.26	6/6
KISQSVLYESRNKSSVA	WASTRES	QQYHRLPLS	1.92	6/6
QMTFQLFEQGNRSGPIA	HESMRET	QQYAQLPLT	1.51	6/6
KLEQSTLYESRNQNSVA	WASTRES	QQYHRLPLS	0.73	6/6
KVSDSVLLESRTKNSVA	NASTRES	QQYHRLPLS	0.72	6/6
KLEQSIDYESRNKNSVA	NASTRES	QQYHRLPLS	-0.17	6/6
TISDVLNTLTKTGNNVA	DLAERED	QQYFRLPLS	0.47	6/6
SLYEMSVELSGKTHSVA	DNSTRGD	QQYFRLPLE	0.64	6/6
KSSQSVLYESRNKNSVA	WASTRES	QQYHRLCLS	nd	0/6
KFSQSVLYESRNKNSVA	NASTREQ	QQYHRLPLS	0.19	6/6
KLSQSVCYESRNKNSVA	NASTRMS	QQYHRLPLS	-0.09	6/6
KLRQMTLTEGYFKNSVA	QASTRAN	QSYHRLPLS	1.22	6/6
VMQMQNDRMQDAAKNIA	GVDMRET	QQYFRLPFL	0.58	6/6
KLLQSTLYESRNKNSVA	WASTRLS	QQYHRLPLS	1.44	6/6
KLTEPMASWRGARHNIA	DRTVTAP	QQYSRLPIT	0.94	6/6
NITYAAEQLQRIDSNVA	AGSARCR	QQYYRLPLS	0.36	6/6
QLEVFNLQAGSTQAAIA	DASHSTP	QQYARLPLM	0.31	6/6
ILQQSMLYESRMKNSVA	NASQRWM	QQYHRLPLS	0.35	6/6
TISQLHNMGTFAINSVA	QAELRND	QQYDRLPLT	1.73	5/6
KLSNSVLYESRNKNSVA	NASTRES	QQYHRLPLS	nd	0/6
KEFQSVLFESRNKNSVA	DASTRES	QQYHRLPLS	-0.55	6/6
KVSEYMRGLMQRKDSIA	DNETRNS	QQYDRLPLS	2.34	5/6
KCSQSVLYEARNKNSVA	WASTREQ	QQYHRLPLS	nd	0/6
NMSDSTERMASILRNIA	DSTTRAM	QQYARLPLS	0.70	6/6
KVSYLGLYGSRNKNSVA	EASTRES	QQYHRLPLD	0.46	6/6
KISQSVLYESRNKNSVA	WASTRES	QQYHRLPYS	2.15	1/6
HIQDDAGGLKEQFDSVA	STEERSY	QQYSRLPLS	0.93	6/6
KVSMQVLYSSRNKNSVA	DANTRES	QQYHRLPLS	-0.34	6/6
VMFMGLYWGNIEHQAIA	NVTMREK	QQYHRLPLQ	2.61	4/6
KISQSVLYESDNKNSVA	GASTRES	QQYHRLPLS	0.11	6/6
KITDKFLGEGNGRQNIA	HAMVAYE	QQYQQLPLA	0.62	6/6
KLSMSVEMMQRNPNSVA	SASTRLS	QQYHRLPLS	-0.39	6/6
KLGQMTAIESRNNNSVA	QMDTRES	QQYDRLPLS	1.15	5/6
KLLQNTGAGYRWAQNVA	HMSTREE	QQYHRLPFV	0.86	6/6
KLQNQMWTMGKQNQAIA	QGAITRV	QQYQHLPLW	1.93	6/6
HMSMLTLMGMRQRNSVA	QMTTREN	QQYDRLPLA	0.97	4/6

6 of these entries, quoted again:

CDR-L1,CDR-L2,CDR-L3,mean log10 Kd (nM),detected
HISQMWHLESKNKNNVA,EESTRED,QSYFRLPLS,0.26,6/6
KLQNQMWTMGKQNQAIA,QGAITRV,QQYQHLPLW,1.93,6/6
KVSYLGLYGSRNKNSVA,EASTRES,QQYHRLPLD,0.46,6/6
KLTMISGLEKVSTSNVA,EMETREE,QQYNRLPLS,1.94,6/6
KSSQSVLYESRNKNSVA,WASTRES,QQYHRLCLS,nd,0/6
SMTGGLLDGNREPSNIA,AQDIGTD,QQYHRLPFI,0.65,6/6

A sequence measured in both rounds can read differently, since the two assays cover different ranges.
The parent sequence was in this pool as ten entries: three were never detected, three once, and four in most replicates, with averages from 0.34 to 2.37.
The authors' rule: three or more of the six replicates give a measured affinity, fewer mean a poor binder.
As a blank, each scFv also met three strains without target: over all light chain designs, 4% of these pairings were detected, typically at 2.64 and seldom below 1.59.